{"sequences": {"note": "The chains behind the UniProt entries cited, without tags or fusion partners. Residues count along the entry.", "UniProt P32301, 22-463": "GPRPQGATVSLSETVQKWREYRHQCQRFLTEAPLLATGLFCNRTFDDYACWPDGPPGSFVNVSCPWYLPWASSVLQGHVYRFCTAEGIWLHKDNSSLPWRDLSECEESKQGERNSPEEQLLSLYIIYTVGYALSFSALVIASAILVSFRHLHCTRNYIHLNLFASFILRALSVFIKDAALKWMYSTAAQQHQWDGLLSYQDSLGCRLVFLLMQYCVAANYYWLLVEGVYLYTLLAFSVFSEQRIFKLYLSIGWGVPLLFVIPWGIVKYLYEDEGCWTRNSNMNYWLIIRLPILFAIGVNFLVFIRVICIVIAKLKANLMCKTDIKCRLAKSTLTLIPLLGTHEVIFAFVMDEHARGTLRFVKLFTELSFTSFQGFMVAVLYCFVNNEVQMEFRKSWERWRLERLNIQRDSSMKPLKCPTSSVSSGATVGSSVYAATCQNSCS"}, "source": "patent US20170239363A1", "target": "rat glucagon-like peptide-1 receptor (GLP-1R) on stably transfected BHK cells (rat) (UniProt P32301)", "test": "cell-based or functional assay"}
{"substance": "66.2 kDa EG9 exendin-C-POEGMA conjugate (DPP4-treated, as in the cAMP assay) (from UniProt P26349) (peptide)", "values": [{"measurement": "EC50 (nM), intracellular cAMP response in BHK cells expressing rat GLP-1R", "value": 2.1, "unit": "nM"}]}
